Laboratory results taken from BindingDB's records for patent US20250127800 (Signet Therapeutics, 2025).

Protein sequences, listed by entry. Tags and fused reporters are not part of them.
UniProt Q05397, whole entry: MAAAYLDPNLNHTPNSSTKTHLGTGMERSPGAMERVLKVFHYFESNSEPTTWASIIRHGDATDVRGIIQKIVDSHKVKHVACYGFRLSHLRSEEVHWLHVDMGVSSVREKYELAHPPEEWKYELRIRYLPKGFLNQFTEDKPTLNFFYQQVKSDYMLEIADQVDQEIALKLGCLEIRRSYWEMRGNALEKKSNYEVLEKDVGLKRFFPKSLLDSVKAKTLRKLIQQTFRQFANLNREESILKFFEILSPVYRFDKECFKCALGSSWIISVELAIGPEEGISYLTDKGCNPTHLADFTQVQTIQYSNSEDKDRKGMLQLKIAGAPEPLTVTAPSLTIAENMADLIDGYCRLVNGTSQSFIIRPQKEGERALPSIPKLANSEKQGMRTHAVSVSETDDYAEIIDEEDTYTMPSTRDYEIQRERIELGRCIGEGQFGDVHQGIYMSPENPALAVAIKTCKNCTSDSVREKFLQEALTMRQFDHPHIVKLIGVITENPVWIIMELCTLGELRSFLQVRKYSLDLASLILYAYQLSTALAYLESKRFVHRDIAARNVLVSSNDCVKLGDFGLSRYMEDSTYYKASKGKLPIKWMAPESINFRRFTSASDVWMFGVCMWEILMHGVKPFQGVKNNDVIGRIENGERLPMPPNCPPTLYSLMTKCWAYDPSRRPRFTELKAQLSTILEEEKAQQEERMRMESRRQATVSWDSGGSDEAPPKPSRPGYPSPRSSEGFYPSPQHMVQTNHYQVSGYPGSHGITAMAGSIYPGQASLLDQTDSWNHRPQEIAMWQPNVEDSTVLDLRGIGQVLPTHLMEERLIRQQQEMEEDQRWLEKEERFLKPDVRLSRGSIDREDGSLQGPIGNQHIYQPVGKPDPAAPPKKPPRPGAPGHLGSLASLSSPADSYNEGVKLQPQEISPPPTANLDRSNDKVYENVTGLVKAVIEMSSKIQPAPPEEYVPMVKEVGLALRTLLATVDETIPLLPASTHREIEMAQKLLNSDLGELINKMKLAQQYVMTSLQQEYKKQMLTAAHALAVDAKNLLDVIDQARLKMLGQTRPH

Target: Focal adhesion kinase 1 (Homo sapiens, UniProt Q05397)
Test: In Vitro Enzymatic Inhibitory Activity Assay

Molecule `C=CC(=O)N1CCC(CNC(=O)c2ccc(Nc3ncc(C(F)(F)F)c(NCc4nccnc4N(C)S(C)(=O)=O)n3)c(OC)c2)CC1` [US20250127800, Example 4] has an IC50 of 1.32 nM.
